The chains behind the UniProt entries cited, without tags or fusion partners.
UniProt P10275, whole entry T878A: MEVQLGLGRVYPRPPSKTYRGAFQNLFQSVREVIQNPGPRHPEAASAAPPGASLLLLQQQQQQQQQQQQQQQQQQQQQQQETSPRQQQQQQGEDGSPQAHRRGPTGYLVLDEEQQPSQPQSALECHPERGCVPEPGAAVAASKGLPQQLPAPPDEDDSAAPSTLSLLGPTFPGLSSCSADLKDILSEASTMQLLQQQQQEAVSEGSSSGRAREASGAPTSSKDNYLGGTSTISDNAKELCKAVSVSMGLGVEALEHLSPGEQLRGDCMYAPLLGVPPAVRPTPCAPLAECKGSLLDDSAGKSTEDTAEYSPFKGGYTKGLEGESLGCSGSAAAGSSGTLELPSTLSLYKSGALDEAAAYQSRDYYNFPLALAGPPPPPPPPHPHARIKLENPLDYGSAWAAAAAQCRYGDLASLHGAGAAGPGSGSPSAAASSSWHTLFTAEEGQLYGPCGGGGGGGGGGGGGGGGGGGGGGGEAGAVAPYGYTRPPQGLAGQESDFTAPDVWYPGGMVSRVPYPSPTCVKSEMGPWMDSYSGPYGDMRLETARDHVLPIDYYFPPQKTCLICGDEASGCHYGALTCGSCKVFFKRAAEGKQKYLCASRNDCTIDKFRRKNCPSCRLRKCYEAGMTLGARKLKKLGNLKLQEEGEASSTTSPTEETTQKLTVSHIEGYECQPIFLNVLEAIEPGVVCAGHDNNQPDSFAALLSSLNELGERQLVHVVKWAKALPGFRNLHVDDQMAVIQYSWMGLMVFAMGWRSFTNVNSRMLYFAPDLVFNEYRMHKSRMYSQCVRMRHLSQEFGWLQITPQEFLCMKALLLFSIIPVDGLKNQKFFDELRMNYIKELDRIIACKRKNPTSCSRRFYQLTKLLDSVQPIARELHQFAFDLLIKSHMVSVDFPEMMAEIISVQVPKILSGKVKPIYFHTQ

In US8003649B2 (AstraZeneca AB, priority 2007, dated 2011):

Target: Androgen Receptor (AR) (Homo sapiens, UniProt P10275, T878A)
Assay: LNCaP Androgen Receptor Down-regulation Cell Assay (immunofluorescence end point)
Type: cell-based
Details: read-out: Androgen Receptor Down-regulation Assay (a) IC50/μM; LNCaP prostate carcinoma cells, compound incubation 20-22 hours, 50% reduction of the AR signal

| SMILES | IC50 |
| --- | --- |
| FC(F)(F)c1nnc2ccc(N3CCC(COc4ncc(Br)cn4)CC3)nn12 | 2 µM |
| COCCn1cc(C2CCN(c3ccc4nnc(C(F)(F)F)n4n3)CC2)c2ccccc21 | 3.7 µM |
| FC(F)(F)c1nnc2ccc(N3CCC(Oc4ccccn4)CC3)nn12 | 1.7 µM |
| CN1CCC(C(=O)Nc2cccc(C3CCN(c4ccc5nnc(C(F)(F)F)n5n4)CC3)c2)CC1 | 1.1 µM |
| O=C(Nc1cccc(C2CCN(c3ccc4nnc(C(F)(F)F)n4n3)CC2)c1)C1CCOCC1 | 0.94 µM |
| FC(F)(Cl)c1nnc2ccc(N3CCN(Cc4ccccc4)CC3)nn12 | 1.5 µM |
| CN(C)CCn1cc(C2CCN(c3ccc4nnc(C(F)(F)F)n4n3)CC2)c2ccccc21 | 1.8 µM |
| FC(F)(F)c1nnc2ccc(N3CCC(c4cccc(OCc5ccon5)c4)CC3)nn12 | 0.58 µM |
| C[C@@H]1CN(c2ccc3nnc(C(F)(F)F)n3n2)[C@@H](C)CN1Cc1cc(F)cc(F)c1 | 9.2 µM |
| Cn1nccc1COc1cccc(C2CCN(c3ccc4nnc(C(F)(F)F)n4n3)CC2)c1 | 0.49 µM |
| N#Cc1ccc(CN[C@H]2[C@@H]3CN(c4ccc5nnc(C(F)(F)F)n5n4)C[C@@H]32)cc1 (relative stereo) | 3.1 µM |
| FC(F)(Cl)c1nnc2ccc(N3CC[C@H](c4ccccc4)C3)nn12 | 8.5 µM |
| COCC(=O)Nc1cccc(C2CCN(c3ccc4nnc(C(F)(F)F)n4n3)CC2)c1 | 3.2 µM |
| COc1ccncc1CN1CCN(c2ccc3nnc(C(F)(F)F)n3n2)CC1 | 4 µM |
| Fc1cccc(CN2CCN(c3ccc4nnc(C(F)F)n4n3)CC2)c1 | 2.8 µM |
| FC(F)(Cl)c1nnc2ccc(N3CC[C@@H](c4ccccc4)C3)nn12 | 1.5 µM |
| C[C@@H]1CN(c2ccc3nnc(C(F)(F)F)n3n2)[C@@H](C)CN1Cc1ccc(F)cc1 | 11 µM |
| COc1cc(OC)nc(C2CCN(c3ccc4nnc(C(F)(F)F)n4n3)CC2)n1 | 3.2 µM |
| OC1(c2ccccc2)CCN(c2ccc3nnc(C(F)(F)F)n3n2)CC1 | 1.2 µM |
